Literature values as cited in patent US20220211661A1, “GREEN TEA CATECHINS EUTECTIC SYSTEM” (ASSISTANCE PUBLIQUE - HOPITAUX DE PARIS, priority 2019, published 2022).
Where “and” joins values, the source holds several entries; their conditions need not be identical. Equal entries are not always repeated.

solubility of EGCG in DMSO (ambient temperature): ≤ 25 mg/mL
EGCG solubility (normal condition): 4.6 g/L and 10 mM
Substance: (-)-epigallocatechin-3-gallate [EGCG]
